Earlier results in US8557989B2, “Electrochemical affinity biosensor system and methods” (priority 2003, dated 2013).

Settings: U.S. Pat. No. 5,589,326

## bis(2,2′-bipyridyl) imidazole chloro osmium (III) dichloride [osmium free mediator]
  redox potential vs. Ag/AgCl: +150 mV
